Reference: article PMC3576842 (Cancer discovery, 2012)

System: NCI-H1975 tumor xenografts (EGFR L858R/T790M)
Assay: NCI-H1975 xenograft study
Settings: daily for 3 days; PKC412 100 or 200 mg/kg, gefitinib 100 mg/kg

COc1cc2ncnc(Nc3ccc(F)c(Cl)c3)c2cc1OCCCN1CCOCC1 [gefitinib]
suppression of phospho-EGFR and phospho-AKT in tumors: failed to inhibit EGFR signaling
